# Measured values as given in US11118200B2, “Method for preparing amines from aldehydes and ketones by biocatalysis” (COMMISSARIAT A L'ENERGIE ATOMIQUE ET AUX ENERGIES …, priority 2017, dated 2021).
# Tested on: enzyme of SEQ ID NO:3
# Assay: Screening of carbonyl-containing compounds with ammonia as amine source (specific activity, absorbance at 340 nm)
# Assay type: biochemical, Microbacterium sp. MA1
# Conditions: 0.2 mM NADPH (best of NADH/NADPH), 10 mM of carbonyl-containing compound
# Method: All the reactions were conducted at 25° C. in spectrophotometric cell (10 mm light path). To a mixture of ammonium formate buffer (2 M NH4HCO2/NH4OH, pH 9.5), NADH or NADPH (0.2 mM) and an appropriate amount of purified enzyme was added.
structure (smiles),measurement,value
O=C1CCc2ccccc21,"Specific activity, SEQ ID NO: 3",11.9^b mU.mg^-1

# Marks after values point to notes of the source that are not given here.
